Patent publication US5336485A, “Method for protecting animals against tacrine induced cytotoxic injury using sterol compounds” (priority 1993, dated 1994)

System: liver
Experiment: CCl4 induced hepatotoxicity in rats (serum AST/ALT)
Format: in vivo, rat
Method: In vivo experiments were performed to determine if alpha-TS administration protects the liver from chemical toxicity. The liver is the target organ for CCl4. CCl4 is a hepatotoxic agent that induces centrilobular liver necrosis through its metabolism to free radicals. Male Sprague-Dawley rats were given an intraperitoneal dose (100 mg/kg) of a tocopherol analog 24 hours prior to a CCl4 challenge (2.9g/kg given by oral garage). Forty eight hours after the challenge, the rats were sacrificed and the levels of aspartate aminotransferase (AST) and alanine aminotransferase (ALT) were measured.
As discussed above, SGOT levels provide a clinical assessment of hepatotoxicity (liver damage).
Succinate analogs were administered to male Sprague-Dawley rats 20 hours prior to a 1 g CCl4 /kg body weight oral challenge and the AST and ALT serum enzyme levels were measured 48 hours after the challenge.
Similar to the experiments were described above, the ionizable congeners were administered to Sprague-Dawley rats by i.p. injection of a 100 mg ionizable congener/kg body weight dose 20 hours prior to oral administration of a 1 g/kg dose of CCl4, and the AST and ALT levels were measured 48 hours after the CCl4 challenge.

[1] = 50 mg/kg ip, 48 h after 1 g/kg CCl4 (Table 41)

Substance: Retinol acetate [reference compound]
- ALT [1]: 5.17 ± 1.32 10^3 units/L
- AST [1]: 13.00 ± 2.11 10^3 units/L
- protection against CCl4 hepatotoxicity (in words) (rats, serum enzyme levels): potentiated CCl4 toxicity
